Experiment [1] concerns the target Signal transducer and activator of transcription 6 (Homo sapiens) (UniProt P42226). Briefly: Inhibition of human STAT6 expressed in BEAS2B cells assessed as IL4-induced eotaxin-3 secretion at 10 uM after 24 hrs by ELISA.
Experiment [2] shares this target. Briefly: Inhibition of human STAT6 expressed in BEAS2B cells assessed as inhibition of IL4-induced STAT6 transcriptional activation.

Structures are written as SMILES. The source made the active and inactive calls. The rule behind the calls is not given here.

Regarding `CN(CCc1ccccc1)C(=O)c1csc2c1CCC/C2=N/O`, the inhibition result in experiment [1] was “inactive”.

With `CC(C)[C@@H](C)NC(=O)c1cc(-c2cc3ccccc3s2)cc(C(=O)NCCc2ccccn2)n1`, the inhibition result in experiment [2] was “Active”. The inhibition result in experiment [1] was “inactive”.

(Values after ChEMBL document CHEMBL2203017, “STAT6 phosphorylation inhibitors block eotaxin-3 secretion in bronchial epithelial cells” (Bioorg Med Chem, 2012).)
